Earlier results on 1 substance are cited in PMC5812454 (Nanomedicine : nanotechnology, biology, and medicine, 2016).

The test system of this series is HER2-positive breast cancer. To be noted: trastuzumab itself; ref [4]; cited from earlier work.

Turning to “trastuzumab: humanized anti-HER2/neu monoclonal antibody trastuzumab (Herceptin; Genentech, Inc.)”, the “tumor growth inhibition (in words)” value was “substantial degree of inhibition”.
